Laboratory results taken from patent US7473709B2, “11β-benzaldoxime derivatives of D-homooestra-4,9-dien-3-ones” (Bayer Schering Pharma AG, priority 2005, dated 2009).

Assays:
[1] = target: T1, Glucocorticoid receptor (GR) (Rattus norvegicus, UniProt P06536); assay: Receptor binding affinity, glucocorticoid receptor (competitive binding with 3H-dexamethasone)
T1 construct: receptors in the cytosol from animal target organs; from tissue; host or cells: thymus cytosol of adrenalectomized rat
T1 sequence (P06536 1-795): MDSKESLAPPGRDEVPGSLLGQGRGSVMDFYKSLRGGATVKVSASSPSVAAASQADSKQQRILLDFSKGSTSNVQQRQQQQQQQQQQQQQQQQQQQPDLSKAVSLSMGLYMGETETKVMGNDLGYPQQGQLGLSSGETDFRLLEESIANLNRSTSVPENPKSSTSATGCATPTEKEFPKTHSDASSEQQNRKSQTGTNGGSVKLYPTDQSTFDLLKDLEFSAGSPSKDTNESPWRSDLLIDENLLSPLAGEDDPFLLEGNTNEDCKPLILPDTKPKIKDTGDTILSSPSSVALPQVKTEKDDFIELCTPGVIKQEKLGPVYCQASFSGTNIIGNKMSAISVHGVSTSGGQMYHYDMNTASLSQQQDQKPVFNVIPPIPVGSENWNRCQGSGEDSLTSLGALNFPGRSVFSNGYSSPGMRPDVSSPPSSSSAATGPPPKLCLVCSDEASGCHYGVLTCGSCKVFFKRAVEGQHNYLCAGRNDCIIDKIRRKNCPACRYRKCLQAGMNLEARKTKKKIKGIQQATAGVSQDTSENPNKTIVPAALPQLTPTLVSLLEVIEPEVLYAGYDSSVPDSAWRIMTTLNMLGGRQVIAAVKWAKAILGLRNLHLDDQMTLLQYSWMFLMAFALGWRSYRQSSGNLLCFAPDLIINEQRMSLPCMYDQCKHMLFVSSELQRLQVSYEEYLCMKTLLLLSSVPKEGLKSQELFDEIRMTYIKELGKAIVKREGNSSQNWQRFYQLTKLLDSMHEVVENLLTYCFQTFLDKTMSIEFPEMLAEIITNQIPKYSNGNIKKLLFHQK
Description: (§1) The receptor binding affinity was determined by the competitive binding of a specifically binding ^3H-labelled hormone (tracer) and the test compound to receptors in the cytosol from animal target organs, with the aim of achieving receptor saturation and reaction equilibrium.
(§2) The tracer and increasing concentrations of the test compound (competitor) were coincubated with the receptor-containing cytosol fraction at 0-4° C. for 18 h. After separation of the unbound tracer with a carbon/dextran suspension, the proportion of receptor-bound tracer was measured for each concentration and the IC50 was determined from the concentration series.
(§3) The following incubation conditions were chosen for the individual receptor types:
Thymus cytosol of the adrenalectomized rat, thymi stored at −30° C.; buffer: TED. Tracer: ^3H-dexamethasone, 20 nM; reference substance: dexamethasone.

[2] = target: T2, Progesterone receptor (PR) (Oryctolagus cuniculus, UniProt P06186); assay: Receptor binding affinity, progesterone receptor (competitive binding with 3H-ORG 2058); settings: uterus cytosol of oestradiol-primed rabbit; tracer 3H-ORG 2058 5 nM; reference progesterone = 100%
T2 construct: receptors in the cytosol from animal target organs; from tissue; host or cells: uterus cytosol of oestradiol-primed rabbit
T2 sequence (P06186 1-930): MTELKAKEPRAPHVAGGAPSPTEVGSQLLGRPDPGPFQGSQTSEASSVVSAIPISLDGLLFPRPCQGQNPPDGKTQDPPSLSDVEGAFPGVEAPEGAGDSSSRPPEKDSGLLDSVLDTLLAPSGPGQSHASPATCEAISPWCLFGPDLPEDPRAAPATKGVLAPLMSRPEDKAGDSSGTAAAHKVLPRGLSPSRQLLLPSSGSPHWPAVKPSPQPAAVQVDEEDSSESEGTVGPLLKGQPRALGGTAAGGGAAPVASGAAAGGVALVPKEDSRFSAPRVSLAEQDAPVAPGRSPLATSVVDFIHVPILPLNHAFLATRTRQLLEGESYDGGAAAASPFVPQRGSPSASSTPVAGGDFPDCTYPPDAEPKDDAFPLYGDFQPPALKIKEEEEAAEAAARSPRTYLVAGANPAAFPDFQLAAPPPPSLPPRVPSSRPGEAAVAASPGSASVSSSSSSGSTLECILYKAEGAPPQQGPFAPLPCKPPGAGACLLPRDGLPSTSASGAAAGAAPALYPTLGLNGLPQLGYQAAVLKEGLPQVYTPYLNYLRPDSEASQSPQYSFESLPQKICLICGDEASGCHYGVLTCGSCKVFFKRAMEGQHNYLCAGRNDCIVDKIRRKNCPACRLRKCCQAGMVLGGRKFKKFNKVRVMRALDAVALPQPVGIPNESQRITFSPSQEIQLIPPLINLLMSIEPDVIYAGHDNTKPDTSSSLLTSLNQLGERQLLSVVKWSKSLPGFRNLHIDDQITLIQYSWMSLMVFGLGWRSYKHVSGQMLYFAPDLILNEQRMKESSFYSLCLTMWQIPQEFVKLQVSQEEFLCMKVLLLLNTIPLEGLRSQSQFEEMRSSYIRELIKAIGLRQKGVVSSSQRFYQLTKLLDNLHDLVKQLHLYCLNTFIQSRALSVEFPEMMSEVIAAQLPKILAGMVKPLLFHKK
Description: as §1, §2, §3
Uterus cytosol of the oestradiol-primed rabbit, homogenized in TED buffer (20 mM Tris/HCI, pH 7.4; 1 mM ethylenediaminetetraacetate, 2 mM dithiothreitol) containing 250 mM sucrose; kept at −30° C.

4-[17aβ-Methoxy-17aα-(methoxymethyl)-17a-homo-3-oxooestra-4,9-dien-11β-yl]benzaldehyde (1E)-[O-(ethylthio)carbonyl]oxime [Example 7]
Ratio GR/PR ([1]; ratio of RBA at GR to RBA at PR): 1.7
Glucocorticoid receptor (GR) dexamethasone = 100% (relative molar binding affinity, RBA) ([1]; thymus cytosol of adrenalectomized rat, tracer 3H-dexamethasone 20 nM, reference dexamethasone = 100%): 112%
Progesterone receptor (PR) progesterone = 100% (relative molar binding affinity, RBA) [2]: 65%
